Data published in PubChem BioAssay AID1272365 (Small Molecule Screening Facility, UW Madison, 2020).
The list shows a part of the results, in another mix than the full data. The source made the active and inactive calls. Rule as the data show it: active = inhibition mostly above about 37% (no sharp cut-off); inactive = mostly below about 20%.

tested on: PriA–SSB C-terminal tail interaction (Klebsiella pneumoniae); assay: blocks PriA binding to SSB C-terminal tail, primary screen, biochemical, AlphaScreen (AID 1272365); conditions: AlphaScreen SSBct-PriA binding, biotinylated peptide; at 33 µM; hits give high values;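 also: plate controls were negative control peptide for no effect and reference peptide for full effect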

Row | SMILES | inhibition
1 | CCC(=O)N(c1ccccc1)C1(COC)CCN(CCc2cccs2)CC1 | inactive: 0.78%
2 | CCC(=O)N(c1ccccc1)C1(COC)CCN(CCn2nnn(CC)c2=O)CC1 | inactive: -4.72%
